Earlier results in US20100105761A1, “TREATMENT OF PAIN THROUGH EXPRESSION OF OPIOID RECEPTORS” (priority 2006, published 2010).

Tests used:
μ receptor = details: antinociception tests on mice

## CN1CC[C@]23c4c5ccc(O)c4O[C@H]2[C@@H](O)C=C[C@H]3[C@H]1C5 [morphine]
μ receptor
  cross tolerance with morphine-6b-glucuronide, heroin or 6-acetyl morphine: does not exhibit cross tolerance
MOR-1
  response to morphine in MOR-1 knockout mouse: does not respond
